Source: patent US8163906B2, “Dihydroquinone and dihydronaphthridine inhibitors of JNK” (Roche Palo Alto, LLC, priority 2007, dated 2012)

Protein sequences, listed by entry. Tags and fused reporters are not part of them. Lines headed by an entry give the natural chain unless they say otherwise; changes in a name come on top.
UniProt P45984: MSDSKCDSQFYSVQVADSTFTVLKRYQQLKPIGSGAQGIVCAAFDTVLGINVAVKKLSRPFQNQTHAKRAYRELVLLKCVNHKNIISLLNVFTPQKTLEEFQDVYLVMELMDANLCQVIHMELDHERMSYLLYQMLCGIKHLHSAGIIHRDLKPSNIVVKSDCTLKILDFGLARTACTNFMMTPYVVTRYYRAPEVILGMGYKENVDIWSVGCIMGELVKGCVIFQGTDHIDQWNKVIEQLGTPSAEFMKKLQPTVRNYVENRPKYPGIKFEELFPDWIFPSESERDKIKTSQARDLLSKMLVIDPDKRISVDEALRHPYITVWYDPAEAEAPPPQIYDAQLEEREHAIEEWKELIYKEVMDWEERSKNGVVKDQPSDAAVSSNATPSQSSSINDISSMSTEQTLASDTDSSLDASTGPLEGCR

Target: Human JNK2α2 (Homo sapiens, UniProt P45984)
Test: JNK assay in vitro, phosphorylation of GST-ATF2 with [γ-33P] ATP (JNK2)
Type: biochemical
Conditions: ATP at Km (8 μM), 1 μM ATF2, 30° C. 30 min
Description: JNK activity was measured by phosphorylation of GST-ATF2 (19-96) with [γ-^33P] ATP. […] Human JNK2α2 assay contains 1 nM enzyme, 1 μM ATF2, 8 μM ATP with 1 uCi [γ-^33P] ATP. Human JNK1α1 assay contains 2 nM enzyme, 1 μM ATF2, 6 μM ATP with 1 μCi [γ-^33P] ATP. […] ATP. The enzyme assay was carried out in the presence or absence of several compound concentrations. JNK and compound were pre-incubated for 10 min., followed by initiation of the enzymatic reaction by adding ATP and the substrate. The reaction mixture was incubated at 30° C. for 30 min. […] The incorporation of ^33P into ATF2 was quantified on a microplate scintillation counter (Packard Topcount). Compound inhibition potency on JNK was measured by IC50 value generated from ten concentration inhibition curves fitted into the 3-parameter model: % inhibition=Maximum/(1+(IC50/[Inhibitor])^slope). Data were analyzed on Microsoft Excel for parameter estimation.

CNS(=O)(=O)c1ccc(Cc2c(C(=O)OC)n(-c3ccccc3)c3cc(Cl)ccc3c2=O)cc1 [Compound 44, 7-Chloro-3-(4-methylsulfamoyl-benzyl)-4-oxo-1-phenyl-1,4-dihydroquinoline-2-carboxylic acid methyl ester]
pIC50: 6.77

pIC50: −log10 of the molar value.
